Reference: article PMC7719162, “Positioning of an unprecedented spiro[5.5]undeca ring system into kinase inhibitor space” (Scientific Reports, 2020)

Biological target: T1, EIF2AK3 (Homo sapiens, UniProt Q9NZJ5)
T1 construct: purchased Reaction Biology Corp
T1 sequence (Q9NZJ5 30-1116): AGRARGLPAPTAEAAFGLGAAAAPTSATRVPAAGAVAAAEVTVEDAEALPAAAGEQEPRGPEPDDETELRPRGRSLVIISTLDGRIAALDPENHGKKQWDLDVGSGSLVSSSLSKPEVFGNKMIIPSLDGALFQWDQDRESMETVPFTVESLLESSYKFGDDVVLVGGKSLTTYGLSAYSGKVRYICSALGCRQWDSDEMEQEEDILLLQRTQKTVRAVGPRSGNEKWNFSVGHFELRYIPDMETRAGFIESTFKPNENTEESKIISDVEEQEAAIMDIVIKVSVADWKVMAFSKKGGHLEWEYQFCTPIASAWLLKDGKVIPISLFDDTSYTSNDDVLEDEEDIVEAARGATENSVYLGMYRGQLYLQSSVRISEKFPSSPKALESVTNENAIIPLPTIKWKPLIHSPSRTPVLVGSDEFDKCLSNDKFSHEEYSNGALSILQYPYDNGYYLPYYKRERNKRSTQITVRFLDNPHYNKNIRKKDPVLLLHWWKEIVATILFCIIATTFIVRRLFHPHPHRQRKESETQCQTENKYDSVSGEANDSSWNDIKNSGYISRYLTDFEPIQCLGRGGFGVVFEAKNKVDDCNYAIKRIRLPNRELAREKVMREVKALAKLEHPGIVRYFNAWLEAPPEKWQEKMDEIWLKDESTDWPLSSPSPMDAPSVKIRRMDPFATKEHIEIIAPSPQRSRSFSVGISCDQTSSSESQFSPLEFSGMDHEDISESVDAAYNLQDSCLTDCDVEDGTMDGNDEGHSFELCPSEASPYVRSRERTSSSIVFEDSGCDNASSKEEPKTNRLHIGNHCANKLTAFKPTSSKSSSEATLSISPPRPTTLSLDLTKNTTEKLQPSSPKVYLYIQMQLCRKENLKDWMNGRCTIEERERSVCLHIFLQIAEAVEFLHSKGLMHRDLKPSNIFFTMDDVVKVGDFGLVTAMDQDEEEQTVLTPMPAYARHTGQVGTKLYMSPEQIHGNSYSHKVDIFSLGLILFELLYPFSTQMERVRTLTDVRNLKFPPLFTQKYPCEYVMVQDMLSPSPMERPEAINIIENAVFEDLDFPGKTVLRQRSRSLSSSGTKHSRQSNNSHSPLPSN
Test: Kinase panel assay (radiolabelled)
Assay type: biochemical
Conditions: control GSK-2606414
Experimental: Every inhibitory activity of tested compounds was measured by radiolabelled method of Reaction Biology Corp). The radiolabelled ATP ([γ-^33P] ATP) replaced a substrate with ^33P-phosphorylated substrate so that the activity of a kinase was measured from the radiolabelled phosphorylated substrate. Kinase panel assay was tested at 30 μM testing compounds with an ATP concentration of 10 μM and a substrate concentration of 10 μM. % Residual activity against GSK3β was measured at 10 uM compounds 1 and 2. […] Curve fits of control compounds were performed where the enzyme activities at the highest concentration of compounds were less than 65%. The concentration of DMSO was controlled and raw data, % kinase activity was calculated relative to DMSO controls.

`Cn1cc(-c2ccc3c(c2)CCN3C(=O)Cc2cccc(C(F)(F)F)c2)c2c(N)ncnc21` [GSK-2606414, reference compound] gave an IC50 of 0.54 nM.
